Inconclusive results are not listed.
System: U2OS PGC1a acetylation AlphaLISA, overnight
Test: activators raising PGC1a acetylation in cells, dose response, cell-based, cherry-picked samples, set 6 (AID 720513);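 note: cells made to overexpress flag tagged PGC1a plus GCN5 acetyltransferase by viral infection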

O=c1[nH]c2ccccc2n1C1CCN(C(c2ccccc2OC(F)(F)F)c2nnnn2C2CCCC2)CC1 (stereo unspecified)
AC40: 2670 nM
